These results are taken from PubChem BioAssay AID2517 (National Center for Advancing Translational Sciences (NCATS), 2010).

Amino acid sequences for entries named in this document (tags omitted).
UniProt P27695, whole entry, looked up: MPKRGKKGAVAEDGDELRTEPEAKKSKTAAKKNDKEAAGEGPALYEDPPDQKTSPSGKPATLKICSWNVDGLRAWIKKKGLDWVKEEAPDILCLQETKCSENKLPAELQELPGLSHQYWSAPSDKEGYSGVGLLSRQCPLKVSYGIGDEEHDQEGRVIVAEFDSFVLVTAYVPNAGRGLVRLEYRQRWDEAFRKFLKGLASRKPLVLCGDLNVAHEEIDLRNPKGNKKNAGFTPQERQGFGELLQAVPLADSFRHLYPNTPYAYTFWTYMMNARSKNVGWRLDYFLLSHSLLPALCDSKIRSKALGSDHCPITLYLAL

Each structure is given as a SMILES string. Values joined by “and” are separate entries in the source; they are usually repeats but may differ in a detail not shown here. Identical values can stand only once. The entries are a selection whose mix differs from that of the whole data set. Records with an inconclusive call do not appear. Active and inactive are the calls of the source. The call rests on the fitted dose curve; in most records, active means well fitted inhibition curve with a large enough effect; inconclusive means small, poorly fitted or top-dose-only effect; inactive means no such curve, though single readings can be large or run the other way.
Potency means the concentration at half of the fitted maximal effect.

The assay concerns the target DNA repair nuclease/redox regulator APEX1 (Homo sapiens) (UniProt P27695). Nature of the assay: qHTS Assay for Inhibitors of the Human Apurinic/apyrimidinic Endonuclease 1 (APE1). Further: nearly all actives have a fitted effect of over 55% in size. The note with it: recombinant APE1, TAMRA/BHQ-2 abasic DNA cleavage fluorescence. The text has this: The apurinic/apyrimidinic endonuclease APE1 is the primary mammalian enzyme responsible for the removal of abasic (or AP) sites in DNA and functions centrally in the base excision DNA repair (BER) pathway. […] Thus, targeting APE1 could improve the efficacy of current treatment paradigms by promoting selective sensitization or protection of diseased and normal cells, respectively.
Inhibition of APE1 activity was screened by utilizing double-stranded short substrate containing tetrahydrofuran (THF) abasic site labeled with rhodamine-type fluorophore (TAMRA) at the 5'-end and with non-fluorescent Black Hole Quencher-2 (BHQ-2) at the opposing 3'-end. An increase in the fluorescence intensity due to incision of the abasic site by APE1 was used to measure the enzyme activity.
NIH Chemical Genomics Center [NCGC]
NIH Molecular Libraries Probe Centers Network [MLPCN] […]
Three uL of enzyme solution (0.75 nM APE1 final concentration) was dispensed to 1536-well Greiner black solid bottom plates. […] The plates were immediately transferred into ViewLux High-throughput CCD imager (Perkin-Elmer) in order to measure the reaction progress in kinetic mode (three reads every 60 seconds) using 525 nm excitation and 598 nm emission fluorescence protocol. The fluorescence intensity difference between the third and the first time points was used to compute reaction progress. […]
Consider `O=c1c(O)c(-c2cc(O)c(O)c(O)c2)oc2cc(O)cc(O)c12`, for which the Potency was active: 282 nM and active: 316 nM and active: 238 nM.
